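Compound exposure: 48 hours, 5 concentrations, 96-well plates. GI50: concentration for 50% inhibition of growth. Definition used: TGI = concentration required for complete inhibition of growth.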
How the values were obtained:
Assay in all cases: inhibition of tumour cell growth, NCI panel, 48 h
786-0 renal = tested on: 786-0 renal
A498 renal = tested on: A498 renal
A549 NSCLC = tested on: A549 NSCLC
ACHN renal = tested on: ACHN renal
CAKI-1 renal = tested on: CAKI-1 renal
CCRF-CEM leukemia = tested on: CCRF-CEM leukemia
COLO 205 colon = tested on: COLO 205 colon
DU-145 prostate = tested on: DU-145 prostate
EKVX NSCLC = tested on: EKVX NSCLC
HCC-2998 colon = tested on: HCC-2998 colon
HCT-116 colon = tested on: HCT-116 colon
HCT-15 colon = tested on: HCT-15 colon
HL-60(TB) leukemia = tested on: HL-60(TB) leukemia
HOP-62 NSCLC = tested on: HOP-62 NSCLC
HOP-92 NSCLC = tested on: HOP-92 NSCLC
HS 578T breast = tested on: HS 578T breast
HT29 colon = tested on: HT29 colon
IGROV1 ovarian = tested on: IGROV1 ovarian
K-562 leukemia = tested on: K-562 leukemia
KM12 colon = tested on: KM12 colon
LOX IMVI melanoma = tested on: LOX IMVI melanoma
M14 melanoma = tested on: M14 melanoma
MALME-3M melanoma = tested on: MALME-3M melanoma
MCF7 breast = tested on: MCF7 breast
MDA-MB-231 breast = tested on: MDA-MB-231 breast
MDA-MB-435 = tested on: MDA-MB-435
MOLT-4 leukemia = tested on: MOLT-4 leukemia
NCI-H226 lung = tested on: NCI-H226 lung
NCI-H23 lung = tested on: NCI-H23 lung
NCI-H322M lung = tested on: NCI-H322M lung
NCI-H460 lung = tested on: NCI-H460 lung
NCI-H522 lung = tested on: NCI-H522 lung
NCI/ADR-RES ovarian = tested on: NCI/ADR-RES ovarian
OVCAR-3 ovarian = tested on: OVCAR-3 ovarian
OVCAR-4 ovarian = tested on: OVCAR-4 ovarian
OVCAR-5 ovarian = tested on: OVCAR-5 ovarian
OVCAR-8 ovarian = tested on: OVCAR-8 ovarian
PC-3 prostate = tested on: PC-3 prostate
RPMI-8226 leukemia = tested on: RPMI-8226 leukemia
RXF 393 renal = tested on: RXF 393 renal
SF-268 CNS = tested on: SF-268 CNS
SF-295 CNS = tested on: SF-295 CNS
SF-539 CNS = tested on: SF-539 CNS
SK-MEL-2 melanoma = tested on: SK-MEL-2 melanoma
SK-MEL-28 melanoma = tested on: SK-MEL-28 melanoma
SK-MEL-5 melanoma = tested on: SK-MEL-5 melanoma
SN12C renal = tested on: SN12C renal
SNB-19 CNS = tested on: SNB-19 CNS
SNB-75 CNS = tested on: SNB-75 CNS
SR leukemia = tested on: SR leukemia
SW-620 colon = tested on: SW-620 colon
T-47D breast = tested on: T-47D breast
TK-10 renal = tested on: TK-10 renal
U251 CNS = tested on: U251 CNS
UACC-257 melanoma = tested on: UACC-257 melanoma
UACC-62 melanoma = tested on: UACC-62 melanoma
UO-31 renal = tested on: UO-31 renal

CSc1ccc(Nc2c([N+](=O)[O-])cc([N+](=O)[O-])cc2[N+](=O)[O-])cc1
GI50 (786-0 renal): 3.75 µM
TGI (786-0 renal): 14.4 µM
GI50 (A498 renal): 1.49 µM
TGI (A498 renal): 3.73 µM
GI50 (A549 NSCLC): 5.43 µM
TGI (A549 NSCLC): 35.7 µM
GI50 (ACHN renal): 2.18 µM
TGI (ACHN renal): 5.24 µM
GI50 (CAKI-1 renal): 3.77 µM
TGI (CAKI-1 renal): > 100 µM
GI50 (CCRF-CEM leukemia): 2.73 µM
TGI (CCRF-CEM leukemia): > 100 µM
GI50 (COLO 205 colon): 1.84 µM
TGI (COLO 205 colon): 4.53 µM
GI50 (DU-145 prostate): 5.66 µM
TGI (DU-145 prostate): > 100 µM
GI50 (EKVX NSCLC): 3.94 µM
TGI (EKVX NSCLC): 37 µM
GI50 (HCC-2998 colon): 4.45 µM
TGI (HCC-2998 colon): 16.6 µM
GI50 (HCT-116 colon): 1.98 µM
TGI (HCT-116 colon): 5.03 µM
GI50 (HCT-15 colon): 2.56 µM
TGI (HCT-15 colon): 10.2 µM
GI50 (HL-60(TB) leukemia): 1.62 µM
TGI (HL-60(TB) leukemia): 4.25 µM
GI50 (HOP-62 NSCLC): 3.39 µM
TGI (HOP-62 NSCLC): 42.4 µM
GI50 (HOP-92 NSCLC): 2.03 µM
TGI (HOP-92 NSCLC): 9.82 µM
GI50 (HS 578T breast): 2.39 µM
TGI (HS 578T breast): 14.6 µM
GI50 (HT29 colon): 3.29 µM
TGI (HT29 colon): 15.5 µM
GI50 (IGROV1 ovarian): 3.79 µM
TGI (IGROV1 ovarian): > 100 µM
GI50 (K-562 leukemia): 2.59 µM
TGI (K-562 leukemia): 12.2 µM
GI50 (KM12 colon): 2.98 µM
TGI (KM12 colon): 11.9 µM
GI50 (LOX IMVI melanoma): 3.1 µM
TGI (LOX IMVI melanoma): 28.3 µM
GI50 (M14 melanoma): 5.89 µM
TGI (M14 melanoma): 19.3 µM
GI50 (MALME-3M melanoma): 2.73 µM
TGI (MALME-3M melanoma): 13.2 µM
GI50 (MCF7 breast): 3.13 µM
TGI (MCF7 breast): 13.6 µM
GI50 (MDA-MB-231 breast): 2.31 µM
TGI (MDA-MB-231 breast): 8.54 µM
GI50 (MDA-MB-435): 8.81 µM
TGI (MDA-MB-435): 22.2 µM
GI50 (MOLT-4 leukemia): 2.07 µM
TGI (MOLT-4 leukemia): 6.3 µM
GI50 (NCI-H226 lung): 2.13 µM
TGI (NCI-H226 lung): 10.4 µM
GI50 (NCI-H23 lung): 2.5 µM
TGI (NCI-H23 lung): 10.7 µM
GI50 (NCI-H322M lung): 8.63 µM
TGI (NCI-H322M lung): > 100 µM
GI50 (NCI-H460 lung): 3.16 µM
TGI (NCI-H460 lung): 13 µM
GI50 (NCI-H522 lung): 1.54 µM
TGI (NCI-H522 lung): 4.36 µM
GI50 (NCI/ADR-RES ovarian): 3.04 µM
TGI (NCI/ADR-RES ovarian): 15.2 µM
GI50 (OVCAR-3 ovarian): 2.13 µM
TGI (OVCAR-3 ovarian): 4.95 µM
GI50 (OVCAR-4 ovarian): 2.83 µM
TGI (OVCAR-4 ovarian): 10.9 µM
GI50 (OVCAR-5 ovarian): 3.52 µM
TGI (OVCAR-5 ovarian): 13.6 µM
GI50 (OVCAR-8 ovarian): 2.62 µM
TGI (OVCAR-8 ovarian): 9.77 µM
GI50 (PC-3 prostate): 2.81 µM
TGI (PC-3 prostate): > 100 µM
GI50 (RPMI-8226 leukemia): 2.68 µM
TGI (RPMI-8226 leukemia): 7.82 µM
GI50 (RXF 393 renal): 2.17 µM
TGI (RXF 393 renal): 6.38 µM
GI50 (SF-268 CNS): 3.45 µM
TGI (SF-268 CNS): > 100 µM
GI50 (SF-295 CNS): 3.78 µM
TGI (SF-295 CNS): 25 µM
GI50 (SF-539 CNS): 4.43 µM
TGI (SF-539 CNS): > 100 µM
GI50 (SK-MEL-2 melanoma): 14 µM
TGI (SK-MEL-2 melanoma): 42.4 µM
GI50 (SK-MEL-28 melanoma): 11.6 µM
TGI (SK-MEL-28 melanoma): 44.7 µM
GI50 (SK-MEL-5 melanoma): 10.3 µM
TGI (SK-MEL-5 melanoma): 21.9 µM
GI50 (SN12C renal): 4.22 µM
TGI (SN12C renal): 80.1 µM
GI50 (SNB-19 CNS): 5.25 µM
TGI (SNB-19 CNS): > 100 µM
GI50 (SNB-75 CNS): 16.1 µM
TGI (SNB-75 CNS): 78.9 µM
GI50 (SR leukemia): 2.47 µM
TGI (SR leukemia): 6.56 µM
GI50 (SW-620 colon): 3.03 µM
TGI (SW-620 colon): 12 µM
GI50 (T-47D breast): 2.32 µM
TGI (T-47D breast): 45.2 µM
GI50 (TK-10 renal): 5 µM
TGI (TK-10 renal): 32.1 µM
GI50 (U251 CNS): 2.88 µM
TGI (U251 CNS): 12.8 µM
GI50 (UACC-257 melanoma): 2.44 µM
TGI (UACC-257 melanoma): 8.37 µM
GI50 (UACC-62 melanoma): 2.66 µM
TGI (UACC-62 melanoma): 12.5 µM
GI50 (UO-31 renal): 1.77 µM
TGI (UO-31 renal): 11.8 µM

Source: PubChem BioAssay (NCI)
